## Antibody variant affinities, Ab-91 heavy chain, assay 2

From the AlphaSeq antibody data of Engelhart et al. 2022 (doi:10.1038/s41597-022-01779-4), copy in the FLAb collection.

The target is the same throughout: PDVDLGDISGINAS, from the HR2 region of SARS-CoV-2 spike.

The variants keep the light chain, the linker and the frameworks of Ab-91 (scFv order VL, three GGGGS repeats, VH).
VL: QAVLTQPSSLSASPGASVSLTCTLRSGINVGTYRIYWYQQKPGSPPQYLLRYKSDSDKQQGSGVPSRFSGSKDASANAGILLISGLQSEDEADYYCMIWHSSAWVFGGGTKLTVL
VH: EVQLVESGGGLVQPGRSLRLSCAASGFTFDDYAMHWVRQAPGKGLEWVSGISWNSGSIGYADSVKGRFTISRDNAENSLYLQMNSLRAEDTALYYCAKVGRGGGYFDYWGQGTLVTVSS

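The starting antibody came from a phage panning campaign against this peptide. Library AAYL51 holds single substitutions and randomly drawn double and triple substitutions in the CDRs. Affinity was read by AlphaSeq, a pooled yeast mating assay with surface-displayed partners. Binding brings cells together so that they mate, and sequencing counts the barcode pairs among the diploids. A regression on co-assayed BCL2-family reference pairs converts the normalised counts of each replicate to an apparent Kd. The assay was run in three technical replicates.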

Positions count from residue 1 of the parent VH; W53S puts S in place of W. Numbers give log10(Kd / nM), so 0 is 1 nM and 3 is 1 µM. Smaller is tighter. Where no diploid with the target was found in that replicate, the entry reads "nd": below detection, most likely a poor binder, though not proof of it. In this assay the parent's reference entry averaged 1.86; its copy inside this library read 0.88.

For W53S N54P G56W, the assay gave nd, 5.87, nd (controls 2 of 9).
For H35S S52Q D62Q, the assay gave nd, nd, nd (controls 0 of 9).
For I51L S57F Y108W, the assay gave 4.69, nd, 4.90 (controls 1 of 9).
For M34E S55K G56L, the assay gave 4.83, 5.07, 3.56 (controls 2 of 9).
For H35G S55M G102M, the assay gave nd, nd, nd (controls 1 of 9).
For D31I K65G V99S, the assay gave 4.99, nd, 6.07 (controls 6 of 9).
For A33C N54A S55C, the assay gave nd, nd, nd (controls 1 of 9).
For S57E S63N Y108S, the assay gave 1.31, 1.39, 0.72 (controls 4 of 9).
For F29W Y32L G56K, the assay gave nd, nd, nd (controls 0 of 9).
For D31C A33S M34P, the assay gave nd, nd, nd (controls 2 of 9).
For H35I I58L G59E, the assay gave nd, 4.03, nd (controls 1 of 9).
For F29H G59S, the assay gave nd, nd, nd (controls 4 of 9).
For D62G D107N, the assay gave nd, 4.52, nd (controls 1 of 9).
For A33T M34I V99A, the assay gave nd, nd, nd (controls 0 of 9).
For G50H W53E S57A, the assay gave nd, nd, nd (controls 0 of 9).
For G50E G59M Y108T, the assay gave nd, 4.90, nd (controls 5 of 9).
For S52V V64T F106I, the assay gave nd, 4.19, nd (controls 1 of 9).
For F29W M34C W53G, the assay gave 4.67, nd, nd (controls 5 of 9).
For I51Q D62A F106T, the assay gave 5.71, nd, 4.28 (controls 6 of 9).
For Y32G G102E D107I, the assay gave 4.54, 6.03, 5.34 (controls 4 of 9).
For T28L N54Y Y108M, the assay gave 4.07, nd, nd (controls 1 of 9).
For G100W R101I Y108I, the assay gave 2.77, 1.66, 1.24 (controls 1 of 9).
For G56W G100K Y108A, the assay gave nd, nd, nd (controls 0 of 9).
For A33H G56P I58N, the assay gave 4.47, nd, nd (controls 0 of 9).
For I51R D62R, the assay gave 4.75, 5.41, 6.12 (controls 6 of 9).
For S57N I58H D107G, the assay gave nd, nd, nd (controls 3 of 9).
For H35D S63M F106V, the assay gave nd, nd, nd (controls 0 of 9).
For G102F F106D Y108Q, the assay gave 4.09, 5.61, 5.13 (controls 8 of 9).
For D30K Y32R S57A, the assay gave nd, nd, nd (controls 2 of 9).
For G59M R101M D107W, the assay gave nd, 4.49, nd (controls 3 of 9).
For N54E V99N D107V, the assay gave 5.65, 6.75, 4.37 (controls 6 of 9).
For F29H I51D, the assay gave 3.87, nd, 3.55 (controls 2 of 9).
For M34Y G56M S57P, the assay gave 4.25, 4.25, 5.39 (controls 4 of 9).
For T28L G59V G102Y, the assay gave 4.19, nd, nd (controls 1 of 9).
For R101K G102Q Y108Q, the assay gave 2.42, 2.36, 2.33 (controls 5 of 9).
For I51R S55N D62T, the assay gave nd, nd, nd (controls 0 of 9).
For A61Q V99L G104M, the assay gave nd, nd, nd (controls 0 of 9).
For G56W D62P Y105S, the assay gave 5.99, 3.70, 3.81 (controls 0 of 9).
For F27G I58N S63H, the assay gave nd, nd, 2.62 (controls 1 of 9).
For G50N N54R I58L, the assay gave nd, nd, nd (controls 1 of 9).
For G59Y S63K F106H, the assay gave nd, nd, nd (controls 0 of 9).
For W53N I58W, the assay gave nd, 4.13, 2.62 (controls 2 of 9).
For I58F S63T V99L, the assay gave 2.19, 1.31, 2.16 (controls 0 of 9).
For D31F N54T K65M, the assay gave nd, nd, nd (controls 1 of 9).
For A33E S55H I58W, the assay gave nd, nd, nd (controls 0 of 9).
For I51N G103K G104W, the assay gave nd, 5.02, nd (controls 5 of 9).
For M34L G104V, the assay gave nd, nd, nd (controls 0 of 9).
For T28F S52T Y108T, the assay gave 5.48, 6.75, 5.93 (controls 4 of 9).

The opening 7 entries, copied out:

| changes | log10 Kd, replicates | signal with controls |
|---|---|---|
| W53S N54P G56W | nd, 5.87, nd | 2 of 9 |
| H35S S52Q D62Q | nd, nd, nd | 0 of 9 |
| I51L S57F Y108W | 4.69, nd, 4.90 | 1 of 9 |
| M34E S55K G56L | 4.83, 5.07, 3.56 | 2 of 9 |
| H35G S55M G102M | nd, nd, nd | 1 of 9 |
| D31I K65G V99S | 4.99, nd, 6.07 | 6 of 9 |
| A33C N54A S55C | nd, nd, nd | 1 of 9 |

Nonspecific signal, from three strains lacking the peptide, appeared in 21% of pairings of library AAYL51, centred on 4.54 (5% of these signals below 3.26); values are not corrected for it. The control count says in how many pairings with the empty strains this scFv gave a signal.